Reference: ChEMBL document CHEMBL1687930 (J Med Chem, 2011)

Experiment: Upregulation of P-glycoprotein mRNA expression in human KB-3-1 cells
Type: functional, cell-based

CN1CC[C@H](N(C)C(=O)N2CC(c3cc(F)ccc3F)=C[C@@]2(CO)c2ccccc2)[C@H](F)C1
fold change (FC): > 500
